Our source for the extent of aggregation (turbidity values is article PMC4192486.

The data set concerns P02766. Briefly: aggregation followed by turbidity at 330 nm; 3.5 μM full-length TTR, quiescent, 200 mM sodium acetate, 100 mM KCl, pH 4.4, 37 °C, 72 h; without or with 35 μM heparin; also TEM. The settings on record: other: aggregation followed by turbidity at 330 nm.

Some results are limits rather than exact numbers.

Take K35L-TTR mutant: the extent of aggregation (turbidity at 330 nm) against WT-TTR is greater than 2 fold.
